Values of other authors, collected in patent US10755801B2, “Identifying peptides having T-cell-exposed motifs with known frequency of occurrence in a reference database” (IOGENETICS, LLC, priority 2014, dated 2020).

System: CD8+ responses, HLA A 0201 restricted
Details: MART-1 peptides, A*0201, melanoma patients, Kawakami

For AAGIGILTV, the “CD8+ T-cell response” value is listed as “immunodominant CD8+ epitope” and the “CD8+ T-cell response” value (listed as 27) is listed as “stimulated a response”.

Where two headings read alike, the source gives them in different places.
